Data taken from US11179437B2, “COP9 signalosome (CSN) complex modulators and uses thereof” (Yeda Research and Development Co. Ltd., priority 2017, dated 2021).

Key:
Assay type in all cases: cell-based, human
HAP1 cells [1] = experiment: Resazurin proliferation assay after UV-C induced DNA damage; settings: exogenous expression in ΔCSNAP cells, 20 J/m^2 UV-C (FIG. 2A)
Protocol: WT, ΔCSNAP, ΔCSNAP-Cerulean and ΔCSNAP-ΔC-Cerulean expressing cells were trypsinized, counted, and 5000 cells/well in 12 well plate were seeded in 4 replicates. Cells in one plate were seeded directly to 30 μg/mlresazurin containing growth medium and fluourescence intensity was measured (540/600 nm) after 2 hours, for initial proliferation value. The other plates were either UV-exposed at 20 J/m^2 24 hours after seeding or left untreated. Two or 4 hours post-UV the growth medium was changed to 30 μg/ml resazurin containing medium and incubated for 2 hours, and fluorescence was measured. Proliferation was calculated at each time point normalizing to the initial proliferation value.

HAP1 cells [2] = experiment: Cell cycle analysis by flow cytometry (double thymidine block or asynchronous BrdU/propidium iodide); settings: asynchronous ΔCSNAP cells, exogenous expression (FIG. 1D)
Protocol: Cells were synchronized to G1/S phase using double thymidine block as described in (Füzesi-Levi et al., 2014). UV treated cells were exposed to 5 J/m^2 dose at release, and fixed with ethanol at different time points. Cell cycle phases were assessed by flow cytometry (LSRII, BD Biosciences) following propidium iodide staining. Asynchronous cells were analyzed using propidium iodide and BrdU double staining. 10^5 cells were denatured after fixation using 2N HCl, 0.5% Triton X-100 in PBS for 30 minutes, neutralized in 0.1M Na2B4O7 pH8.5 and incubated with 5 μl of anti-BrdU-FITC (eBioscience 11-5071-41) 1% BSA, 0.5% Triton X-100 in PBS for 1 hour. Cells were washed in 1% BSA in PBS and resuspended in PBS containing 50 μg/ml propidium iodide and 50 μg/ml RNAse A, and analyzed in FACSAria Fusion flow cytometer (BD Biosciences).

ΔCSNAP HAP1 cells = experiment: Confocal microscopy of cell morphology (cell and nuclear area); settings: exogenous expression in ΔCSNAP cells (FIGS. 1A, 1B)
Protocol: Confocal imaging of WT, ΔCSNAP and ΔCSNAP cells expressing CSNAP-Cerulean was performed at 60× magnification as previously described (Rozen et al., 2015). Cell area was measured by Olympus Fluoview software. The area of at least 27 cells and nuclei were measured, and plotted as boxes extending from the third (Q3) to the first quartiles (Q1). Whiskers at the top and bottom represent measurements above the Q3 or below the Q1, respectively.

Substance: CSNAP-cerulean: full length CSNAP protein tagged with cerulean, exogenously expressed in ΔCSNAP cells (MKPAVDEMFPEGAGPYVDLDEAGGSTGLLMDLAANEKAVHADFFNDFEDLFDDDDIQ; left off: large carriers)
- reduced cellular proliferation (arrest) after UV-C irradiation (HAP1 cells [1]): rescue was achieved
- prevention of larger S and G2 phase population of ΔCSNAP cells (HAP1 cells [2]): can be prevented
- rescue of enlarged and flattened cell morphology of ΔCSNAP cells (ΔCSNAP HAP1 cells): can be rescued
